Earlier results in PMC6004248 (Clinical cancer research : an official journal of the …, 2018).

Experiments:
[1] = test system: ALK-positive NSCLC; conditions: cited from earlier work
[2] = test system: advanced, ALK-positive NSCLC; conditions: untreated patients; cited from earlier work
[3] = test system: advanced, ALK-positive NSCLC; conditions: previously treated patients; cited from earlier work

Compound: CCc1cc2c(cc1N1CCC(N3CCOCC3)CC1)C(C)(C)c1[nH]c3cc(C#N)ccc3c1C2=O [alectinib]
- AEs leading to discontinuation [1]: 11%
- AEs leading to dose interruption [1]: 19%
- AEs leading to dose reduction [1]: 16%
- patients who had a SAE [1]: Twenty-eight
- RR ([1]; first line): 82%
- intracranial response ([1]; first line): 81%
- median PFS ([1]; first line): 25.7 months

Compound: C[C@@H](Oc1cc(-c2cnn(C3CCNCC3)c2)cnc1N)c1c(Cl)ccc(F)c1Cl [crizotinib]
- median PFS [2]: 10.9 months
- response rate [2]: 74%
- median PFS [3]: 7.7 months
- response rate [3]: 65%

Like-named read-outs stand apart in the source and are kept apart here.
